Our source for the Kd values is ChEMBL document CHEMBL2321749, “Incorporation of rapid thermodynamic data in fragment-based drug discovery” (J Med Chem, 2013).

Protein sequences, listed by entry. Tags and fused reporters are not part of them.
UniProt P28482, whole entry: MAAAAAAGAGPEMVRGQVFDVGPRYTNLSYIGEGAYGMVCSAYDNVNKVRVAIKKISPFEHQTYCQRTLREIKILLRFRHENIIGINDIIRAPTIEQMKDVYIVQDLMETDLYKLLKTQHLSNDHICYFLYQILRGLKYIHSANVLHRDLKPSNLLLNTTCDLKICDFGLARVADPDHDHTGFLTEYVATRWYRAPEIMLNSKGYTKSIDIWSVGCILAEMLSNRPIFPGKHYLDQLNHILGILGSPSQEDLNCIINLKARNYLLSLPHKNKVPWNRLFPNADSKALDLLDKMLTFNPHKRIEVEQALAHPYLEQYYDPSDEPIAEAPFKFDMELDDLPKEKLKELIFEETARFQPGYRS

The test concerns the target Mitogen-activated protein kinase 1 (Homo sapiens, UniProt P28482). The test can be described thus: Binding affinity to ERK2 (unknown origin) by isothermal titration calorimetry. (Isothermal titration calorimetry measures the heat released or taken up as one component is titrated into another.)

For the molecule `Nc1n[nH]c2nnc(-c3c(-c4ccccc4)nn4ccccc34)cc12`, the Kd is 850 nM.

As a reminder, the Kd is the equilibrium constant for the complex coming apart. A lower Kd goes with higher affinity.
